The target in the assay is CB1 (Homo sapiens, UniProt P21554). Put plainly: Radioligand displacement of [3H]1. Format: binding.

The chains behind the UniProt entries cited, without tags or fusion partners.
UniProt P21554, whole entry, species assumed: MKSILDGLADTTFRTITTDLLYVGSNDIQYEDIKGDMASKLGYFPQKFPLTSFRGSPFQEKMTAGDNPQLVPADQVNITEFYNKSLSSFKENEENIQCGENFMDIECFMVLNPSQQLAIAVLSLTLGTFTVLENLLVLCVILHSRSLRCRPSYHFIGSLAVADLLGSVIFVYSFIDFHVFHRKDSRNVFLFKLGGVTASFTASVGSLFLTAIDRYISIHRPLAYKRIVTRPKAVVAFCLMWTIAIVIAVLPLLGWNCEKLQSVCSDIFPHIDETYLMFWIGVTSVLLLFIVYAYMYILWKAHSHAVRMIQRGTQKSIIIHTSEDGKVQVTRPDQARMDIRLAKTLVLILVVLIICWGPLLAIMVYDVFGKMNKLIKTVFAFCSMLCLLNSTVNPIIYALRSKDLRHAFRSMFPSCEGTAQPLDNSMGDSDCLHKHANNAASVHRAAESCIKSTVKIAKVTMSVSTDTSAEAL

pKi: −log10 of the molar value.

Take `Cc1c(C(=O)NCC2CCC(CNS(N)(=O)=O)CC2)nn(-c2ccc(Cl)cc2Cl)c1-c1ccc(Cl)cc1` (mixture of isomers) [Compound 21]: the pKi was ~8.00.
